# Source: patent publication US8715737B2, “Method to make porous materials and their applications” (priority 2010, dated 2014)
# Key:
# [1] = tested on: Breast Cancer Model (BT-474); test: Breast cancer model (BT-474) in nude mice; type: in vivo; details: for Tumor Volume Day 40 after Treatment Started: Trastuzumab 1 mg/kg i.v. weekly, Y-90-Trastuzumab 100 μCi i.v. once, porous material 600 μCi locally once; for Day Mice survived after Treatment Started: day by which all mice euthanized: mouse euthanized when tumor volume reached 2 cm3
# Method: A mouse with a tumor size of about 0.125 cm3 size was randomly assigned to either a control group or a treated group. There were four groups: PBS control, unmodified antibody (Trastuzumab), Y-90-Trastuzumab and Y-90-dendrimer porous material treated group. Each group was fifteen mice. Each tumor size had been measured every three days since treatments started. When the tumor volume reached 2 cm3, the tumor bearing mouse was euthanized. Unmodified Trastuzumab was given i.v. at the dose of 1 mg/kg every weekly for whole experiment period. A 100 μCi of Y-90 labeled Trastuzumab was given i.v. at once (maximal tolerant dose) and a 600 μCi of Y-90-dendrimer porous material was given locally once.
# [2] = tested on: Colorectal Cancer Model (HT-29); test: Colorectal cancer model (HT-29) in nude mice; type: in vivo; details: for Tumor Volume Day 50 after Treatment Started: cetuximab 1 mg/kg i.v. weekly, Y-90-cetuximab 100 μCi i.v. once, porous material 600 μCi locally once; for Day Mice survived after Treatment Started: day by which all mice euthanized: mouse euthanized when tumor volume reached 2 cm3
# Method: A mouse with a tumor size of about 0.125 cm3 size was randomly assigned to either a control group or a treated group. There were four groups: PBS control, unmodified antibody (cetuximab), Y-90-cetuximab and Y-90-chitosa porous material treated group. Each group was fifteen mice. Each tumor size had been measured every three days since treatments started. When the tumor volume reached 2 cm3, the tumor bearing mouse was euthanized. Unmodified cetuximab was given i.v. at the dose of 1 mg/kg every weekly for whole experiment period. 100 μCi of Y-90 labeled cetuximab was given i.v. once (maximal tolerated dose of radiolabeled antibody) and 600 μCi of Y-90-chitosan porous material was given locally once.
substance,measurement,setting,value
Trastuzumab [Unmodified Trastuzumab],Tumor Volume Day 40 after Treatment Started,[1],1.75 ± 0.49 cm^3
same,Day Mice survived after Treatment Started: day by which all mice euthanized,[1],by day 47
"Y-90- Cetuximab: Y-90 labeled cetuximab, radiolabeled antibody",Tumor Volume Day 50 after Treatment Started,[2],1.70 ± 0.41 cm^3
same,Day Mice survived after Treatment Started: day by which all mice euthanized,[2],by day 73
"Y-90-Trastuzumab: Y-90 labeled Trastuzumab, radiolabeled antibody",Tumor Volume Day 40 after Treatment Started,[1],1.70 ± 0.41 cm^3
same,Day Mice survived after Treatment Started: day by which all mice euthanized,[1],by day 50
cetuximab [Unmodified Cetuximab],Tumor Volume Day 50 after Treatment Started,[2],1.75 ± 0.49 cm^3
same,Day Mice survived after Treatment Started: day by which all mice euthanized,[2],by day 69
